According to patent publication US6207397A, “In vitro fluorescence polarization assay” (ARIAD Pharmaceuticals, Inc., priority 1997, dated 2001):

Molecular target: T1, Src-SH2 (Homo sapiens, UniProt P12931)
T1 construct: Human Src encoding residues 145-251; made in house; host or cells: E. coli BL21 (DE3), pT7 expression vector
Experiment: Fluorescence polarization Src-SH2 competition assay with peptides
Assay type: binding
Settings: TABLE 1; fixed probe and Src-SH2, increasing peptide; read-out: Peptide competitive IC50
Procedure: All polarization methods were performed on an FPM2 96-well plate reader (Jolley), with standard cutoff filters (excitation=485 nm; emission=530 nm). Saturation experiments were used to explore various conditions for the assay, with the aim of maximizing the protein and assay stability, and of determining Kd s of the protein/probe interaction.
For competition experiments, fixed concentrations of probe and protein were used, and increasing concentrations of peptides were added.
All buffer components were low-fluorescence grade (Panvera Corporation). Standard (STD) buffer contains 20 mM phosphate (pH 7.4), 100 mM NaCl, 2 mM DTT, 1 mM EDTA, and 100 ug/ml BGG. Standard buffer is prepared by preparing NaCl, EDTA and phosphate stocks in Millipore water or the cleanest available water supply. The buffer is brought to volume in the same clean water.
The SRC protein is used at a concentration of 0.75 uM final. An example of SRC stock solution is 416.6 uM in STD buffer. […] It is desirable to make a 2× stock of this. For assays where the tighter-binding pYpYpYIE probe is used, the Src protein concentration can be reduced to 150 nM. In general, the concentration of the protein can be adjusted to match the affinity of the probe.
Fluor-GpYEEI is used as the probe at a concentration of 20 nM final. The probe stock sent is 10 uM in STD buffer.

Work on Ac-pYEEI yielded an IC50 of 8 µM.
